Among the test systems are SK-MEL-2 melanoma; EKVX NSCLC; SN12C renal; UO-31 renal; TK-10 renal; ACHN renal; CAKI-1 renal; A498 renal; HL-60(TB) leukemia; CCRF-CEM leukemia; MOLT-4 leukemia; SR leukemia; RPMI-8226 leukemia; OVCAR-8 ovarian; OVCAR-5 ovarian; OVCAR-4 ovarian; SK-OV-3 ovarian; IGROV1 ovarian; OVCAR-3 ovarian; HS 578T breast.
What all share (assay): NCI-60 one-dose screen, 48 h (100 = growth as untreated, 0 = no growth, -100 = all killed)
What all share (settings): 10 µM unless noted

The entries are a selection whose mix differs from that of the whole data set.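 Single-dose data. Exposure time 48 hours. Values below 10 considered active.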 The source made the active and inactive calls.

On to `O=[As]c1ccc(S(=O)(=O)Nc2ccccc2)cc1` (stereo not given), for which the growth with SK-MEL-2 melanoma is inactive: 16.6%; in the assay on EKVX NSCLC, inactive: 103%; with SN12C renal, inactive: 48.8%; in the assay on UO-31 renal it was inactive: 27.6%; in the assay with TK-10 renal it was inactive: 21.1%; in the assay with ACHN renal, inactive: 75%. The growth in the assay with CAKI-1 renal is inactive: 38.7%; in the assay on A498 renal, inactive: 98.5%; in the assay on HL-60(TB) leukemia it was active: -32.3%; in the assay with CCRF-CEM leukemia, active: -12.2%; in the assay on MOLT-4 leukemia it was inactive: 25.2%; in the assay with SR leukemia, active: -17%. For the same molecule, the growth with RPMI-8226 leukemia was active: -0.236%; in the assay on OVCAR-8 ovarian it was inactive: 75.4%; in the assay on OVCAR-5 ovarian it was inactive: 10.8%; in the assay with OVCAR-4 ovarian, inactive: 57.3%; in the assay with SK-OV-3 ovarian it was inactive: 121%; in the assay with IGROV1 ovarian, inactive: 46%. The results for the growth in the assay with OVCAR-3 ovarian and with HS 578T breast were inactive: 19.2% and inactive: 65%, respectively.

Regarding `CC[C@H](C)[C@@H]1NC(=O)/C(=C(\C)O)C1=O`, the growth with SK-MEL-2 melanoma was inactive: 108%; with EKVX NSCLC, inactive: 98.3%; in the assay on SN12C renal, inactive: 90.1%; in the assay on UO-31 renal it was inactive: 94.3%; with TK-10 renal it was inactive: 110%; in the assay with ACHN renal it was inactive: 87.9%. Also, the growth was inactive: 79% with CAKI-1 renal; inactive: 107% with A498 renal; inactive: 121% with HL-60(TB) leukemia; inactive: 128% in the assay with CCRF-CEM leukemia; inactive: 114% in the assay on MOLT-4 leukemia; inactive: 152% in the assay with SR leukemia. In addition, the growth with RPMI-8226 leukemia is inactive: 172%; in the assay with OVCAR-8 ovarian, inactive: 96.9%; in the assay on OVCAR-5 ovarian, inactive: 103%; with OVCAR-4 ovarian, inactive: 109%; in the assay with SK-OV-3 ovarian it was inactive: 98.1%; with IGROV1 ovarian it was inactive: 121%. Further, the values for the growth with OVCAR-3 ovarian and in the assay on HS 578T breast were inactive: 114% and inactive: 102%, respectively.

Take `CCN(CCCl)C(Cc1ccccc1)c1ccccc1` (stereo not given): the growth in the assay with SK-MEL-2 melanoma is inactive: 101%; in the assay on EKVX NSCLC, inactive: 108%; with SN12C renal it was inactive: 92.4%; with UO-31 renal, inactive: 89.6%; with TK-10 renal, inactive: 90.6%; in the assay with ACHN renal, inactive: 108%. The growth is inactive: 101% in the assay on CAKI-1 renal; inactive: 78.3% with A498 renal; inactive: 73.8% with HL-60(TB) leukemia; inactive: 103% in the assay on CCRF-CEM leukemia; inactive: 81.6% with MOLT-4 leukemia; inactive: 85.7% in the assay on SR leukemia. Further, the growth with RPMI-8226 leukemia is inactive: 95.9%; in the assay with OVCAR-8 ovarian, inactive: 98.5%; with OVCAR-5 ovarian it was inactive: 109%; in the assay on OVCAR-4 ovarian it was inactive: 106%; in the assay with SK-OV-3 ovarian it was inactive: 97.2%; in the assay on IGROV1 ovarian, inactive: 96.1%. The figures for the growth in the assay on OVCAR-3 ovarian and in the assay with HS 578T breast were inactive: 108% and inactive: 92.3%, respectively.

Turning to `COc1cc([N+](=O)[O-])cc([N+](=O)[O-])c1`, the growth is inactive: 102% in the assay on SK-MEL-2 melanoma; inactive: 108% with EKVX NSCLC; inactive: 99.4% with SN12C renal; inactive: 89% in the assay with UO-31 renal; inactive: 107% with TK-10 renal; inactive: 104% in the assay on ACHN renal. In addition, the growth in the assay on CAKI-1 renal was inactive: 101%; in the assay with A498 renal it was inactive: 97.5%; in the assay on HL-60(TB) leukemia, inactive: 102%; in the assay on CCRF-CEM leukemia it was inactive: 91%; in the assay on MOLT-4 leukemia, inactive: 92.7%; with SR leukemia, inactive: 90.2%. Moreover, the growth with RPMI-8226 leukemia was inactive: 99.5%; in the assay with OVCAR-8 ovarian, inactive: 102%; in the assay with OVCAR-5 ovarian it was inactive: 117%; in the assay on OVCAR-4 ovarian, inactive: 102%; in the assay on SK-OV-3 ovarian, inactive: 107%; with IGROV1 ovarian, inactive: 130%. The growth in the assay with OVCAR-3 ovarian is inactive: 116%; in the assay with HS 578T breast, inactive: 114%.

Turning to `CN(C)C(=O)NP(=O)(N(C)C)N(C)C`, the growth in the assay with SK-MEL-2 melanoma is inactive: 114%; in the assay on EKVX NSCLC it was inactive: 98.7%; in the assay with SN12C renal it was inactive: 99.3%; in the assay with UO-31 renal, inactive: 92.4%; in the assay on TK-10 renal, inactive: 102%; with ACHN renal, inactive: 96.6%. The growth is inactive: 93.1% in the assay on CAKI-1 renal; inactive: 109% in the assay on A498 renal; inactive: 103% in the assay on HL-60(TB) leukemia; inactive: 103% with CCRF-CEM leukemia; inactive: 103% in the assay with MOLT-4 leukemia; inactive: 101% in the assay on SR leukemia. The growth in the assay with RPMI-8226 leukemia was inactive: 109%; in the assay on OVCAR-8 ovarian it was inactive: 108%; in the assay on OVCAR-5 ovarian it was inactive: 102%; with OVCAR-4 ovarian, inactive: 106%; in the assay with SK-OV-3 ovarian, inactive: 111%; in the assay on IGROV1 ovarian, inactive: 105%. In addition, the growth in the assay on OVCAR-3 ovarian was inactive: 117%; in the assay on HS 578T breast, inactive: 115%.

In the case of `CCOP(=O)(Nc1ccc(C)cn1)OCC`, the growth in the assay on SK-MEL-2 melanoma was inactive: 107%; with EKVX NSCLC, inactive: 109%; in the assay with SN12C renal it was inactive: 105%; with UO-31 renal it was inactive: 94.4%; in the assay on TK-10 renal, inactive: 123%; in the assay with ACHN renal, inactive: 107%. Besides, the growth was inactive: 112% in the assay on CAKI-1 renal; inactive: 89.5% with A498 renal; inactive: 75.1% in the assay on HL-60(TB) leukemia; inactive: 101% with CCRF-CEM leukemia; inactive: 77.9% with MOLT-4 leukemia; inactive: 106% with SR leukemia. The growth is inactive: 117% in the assay on RPMI-8226 leukemia; inactive: 109% with OVCAR-8 ovarian; inactive: 100% in the assay on OVCAR-5 ovarian; inactive: 96.2% in the assay on OVCAR-4 ovarian; inactive: 107% in the assay on SK-OV-3 ovarian; inactive: 104% in the assay with IGROV1 ovarian. The growth was inactive: 126% with OVCAR-3 ovarian and inactive: 98% in the assay on HS 578T breast.

On to `CCOC(=O)NC(c1ccccc1[N+](=O)[O-])P(=O)(O)Nc1ncn[nH]1` (stereo not given), for which the growth in the assay on SK-MEL-2 melanoma was inactive: 106%; in the assay with EKVX NSCLC, inactive: 96.4%; with SN12C renal, inactive: 106%; in the assay on UO-31 renal it was inactive: 73.4%; in the assay on TK-10 renal, inactive: 121%; in the assay on ACHN renal it was inactive: 105%. The growth is inactive: 97.8% in the assay with CAKI-1 renal; inactive: 132% in the assay with A498 renal; inactive: 150% in the assay with HL-60(TB) leukemia; inactive: 106% in the assay with CCRF-CEM leukemia; inactive: 116% with MOLT-4 leukemia; inactive: 109% in the assay with SR leukemia. Further, the growth with RPMI-8226 leukemia is inactive: 102%; in the assay with OVCAR-8 ovarian, inactive: 107%; in the assay with OVCAR-5 ovarian, inactive: 106%; in the assay with OVCAR-4 ovarian, inactive: 112%; in the assay on SK-OV-3 ovarian, inactive: 108%; in the assay on IGROV1 ovarian, inactive: 101%. The growth with OVCAR-3 ovarian is inactive: 109%; in the assay with HS 578T breast, inactive: 118%.

(Values after PubChem BioAssay (NCI).)
